Biological target: T1, TLR8 (Homo sapiens, UniProt Q9NR97)
T1 sequence (Q9NR97 27-1041): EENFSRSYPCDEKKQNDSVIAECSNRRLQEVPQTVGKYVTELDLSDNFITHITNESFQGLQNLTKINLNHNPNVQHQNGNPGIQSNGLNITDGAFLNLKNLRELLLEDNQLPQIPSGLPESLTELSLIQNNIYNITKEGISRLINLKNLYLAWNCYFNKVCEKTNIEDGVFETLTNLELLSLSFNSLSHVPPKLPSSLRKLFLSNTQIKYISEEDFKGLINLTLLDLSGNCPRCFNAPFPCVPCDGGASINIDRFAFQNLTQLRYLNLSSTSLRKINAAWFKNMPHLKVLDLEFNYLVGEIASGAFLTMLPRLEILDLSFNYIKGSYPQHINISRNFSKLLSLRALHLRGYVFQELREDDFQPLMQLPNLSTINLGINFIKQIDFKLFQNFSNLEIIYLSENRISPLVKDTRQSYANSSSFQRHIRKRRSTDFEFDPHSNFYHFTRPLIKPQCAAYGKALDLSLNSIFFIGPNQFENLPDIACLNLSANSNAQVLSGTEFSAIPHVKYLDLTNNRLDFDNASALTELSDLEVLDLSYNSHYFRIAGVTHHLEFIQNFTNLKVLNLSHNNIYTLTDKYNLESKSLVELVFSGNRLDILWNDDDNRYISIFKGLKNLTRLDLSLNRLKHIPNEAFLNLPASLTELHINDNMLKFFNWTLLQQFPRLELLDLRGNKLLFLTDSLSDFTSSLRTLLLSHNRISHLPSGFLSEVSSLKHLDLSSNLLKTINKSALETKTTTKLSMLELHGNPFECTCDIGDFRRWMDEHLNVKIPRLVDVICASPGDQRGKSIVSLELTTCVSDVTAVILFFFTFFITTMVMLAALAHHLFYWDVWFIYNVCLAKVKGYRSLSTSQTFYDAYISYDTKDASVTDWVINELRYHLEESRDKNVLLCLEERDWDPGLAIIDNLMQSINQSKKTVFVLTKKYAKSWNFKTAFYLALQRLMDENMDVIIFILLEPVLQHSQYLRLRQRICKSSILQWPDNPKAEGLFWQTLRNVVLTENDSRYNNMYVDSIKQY
Assay: Inhibition of TL8-506-stimulated NF-κB activity (SEAP reporter, QuantiBlue) in hTLR8-HEK293 reporter cells
Assay type: cell-based
Design: host or cells: HEK293 (HEK-Blue hTLR8)
Conditions: read-out: % inhibition at 10 µM ± SEM (NF-κB activity), 10 µM compound, TL8-506 (0.6 μM) 24 h

## COc1cc(C(=O)NCCN2CCCC2)ccc1OCc1c(C)noc1C [Compound 11]
  inhibition at 10 µM: 75 ± 5%
